The target in the experiment is soybean trypsin inhibitor (STI) (soybean) (UniProt P01070). Description: AUC.

“α-chymotrypsin (from UniProt P00766 1-13; P00766 16-146; P00766 149-245) (enzyme; other documents disagree on this pair)”: the log10[Ka1] (1.7:1 data set, 280 nm data only, with mass conservation) came out at 5.9; the log10[Ka1] (1.7:1 data set, 280 nm data only, without mass conservation) came out at 5.9; the log10[Ka1] (1.7:1 data set, log10[Ka2/Ka1] fixed at −0.60206, RI noise only) worked out at 5.79; the log10[Ka1] (1.7:1 data set, log10[Ka2/Ka1] fixed at −0.60206, with TI noise) is 5.87. In addition, the log10[Ka1] (1.7:1 data set, ratio of B to A floated) was found to be 5.89; the log10[Ka1] (average of the data sets, 280 nm data only, with mass conservation) was determined as 5.76; the log10[Ka1] (average of the five data sets, log10[Ka2/Ka1] fixed at −0.60206) was 5.8; the log10[Ka1] (average, log10[Ka2/Ka1] constraint removed) came to 5.4. Also, the stoichiometry N (α-chymotrypsin per STI) is 2.

Source of the values: paper PMC3090454.
